# Values quoted from earlier work, collected in patent US20060078562A1, “RAGE fusion proteins and methods of use” (priority 2004, published 2006).
# Details: cited from earlier work
molecule,measurement,value
"sRAGE: the RAGE protein that does not include the transmembrane region or the cytoplasmic tail; species not stated at the place (protein, listed as Homo sapiens) MAAGTAVGAWVLVLSLWGAVVGAQNITARIGEPLVLKCKGAPKKPPQRLEWKLNTGRTEAWKVLSPQGGGPWDSVARVLPNGSLFLPAVGIQDEGIFRCQAMNRNGKETKSNYRVRVYQIPGKPEIVDSASELTAGVPNKVGTCVSEGSYPAGTLSWHLDGKPLVPNEKGVSVKEQTRRHPETGLFTLQSELMVTPARGGDPRPTFSCSFSPGLPRHRALRTAPIQPRVWEPVPLEEVQLVVEPEGGAVAPGGTVTLTCEVPAQPSPQIHWMKDGVPLPLPPSPVLILPEIGPQDQGTYSCVATHSSHGPQESRAVSISIIEPGEEGPTAGSVGGSGLG",half-life in human plasma,only a few hours
